{"source": "patent US20260062376A1", "about": "“SQUARAMIDE DERIVATIVES AS CB1 ALLOSTERIC MODULATORS” (RESEARCH TRIANGLE INSTITUTE, priority 2022, published 2026)", "origin": "cited, not measured here", "key": {"[1]": {"target": "T1, CB1R (Homo sapiens (Human), UniProt P21554)", "conditions": "cited from earlier work"}, "[2]": {"target": "T1, CB1R", "conditions": "cited from earlier work", "remark": "listed apart in the source"}}, "data": [{"molecule": "O=C(Nc1ccc(Cl)cc1)Nc1cccc(-c2cccc(N3CCCC3)n2)c1", "note": "[PSNCBAM-1]", "values": [{"measurement": "Binding cooperativity with CP55,940", "setting": "[1]", "result": "positive binding cooperativity"}, {"measurement": "Efficacy of agonists in several functional assays", "setting": "[2]", "result": "reduces the efficacy of agonists"}]}]}
